Assay results taken from patent US5338845A, “Aspergillus species, cyclic dimeric dipeptide derivative substance P antagonist biosynthetic products thereof, and process for preparation thereof” (Sterling Winthrop Inc., priority 1992, dated 1994).

Sequences of proteins named here, by UniProt entry; tags and fusion partners are left off.
UniProt P25103, whole entry: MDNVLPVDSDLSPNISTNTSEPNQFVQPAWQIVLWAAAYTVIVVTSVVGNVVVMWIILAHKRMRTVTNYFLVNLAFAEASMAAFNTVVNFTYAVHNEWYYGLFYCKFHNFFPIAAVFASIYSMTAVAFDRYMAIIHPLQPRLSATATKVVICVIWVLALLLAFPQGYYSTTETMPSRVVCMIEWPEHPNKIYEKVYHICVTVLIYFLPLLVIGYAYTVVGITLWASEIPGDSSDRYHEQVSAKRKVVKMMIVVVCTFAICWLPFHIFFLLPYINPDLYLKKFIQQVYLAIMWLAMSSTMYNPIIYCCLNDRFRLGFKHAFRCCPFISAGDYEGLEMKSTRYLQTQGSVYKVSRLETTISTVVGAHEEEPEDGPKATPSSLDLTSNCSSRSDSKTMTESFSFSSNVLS

Target: NK1 (Homo sapiens, UniProt P25103)
Assay: Substance P NK1 receptor binding, 125I-Bolton Hunter Substance P, human astrocytoma cells (U-373 MG)
Conditions: read-out: Ki Human Astrocytoma Cells (Substance P antagonist potency), U-373 MG cells, Ki calculated from IC50
Protocol: As stated above the compounds of Formula I are useful as Substance P antagonists and therefore as analgesic and/or antiinflammatory agents. Substance P antagonist NK1 receptor binding activity was determined using guinea pig submaxillary gland tissue and human astrocytoma cells.
Human astrocytoma cells (U--373 MG, ATCC No. HTB 17) were cultured in 75-mL flasks in an aqueous medium containing horse serum (heat inactivated, 10%), minimum essential amino acids (2%), minimum essential vitamin solution (2%), and an aqueous solution of penicillin (10,000 units/mL) and streptomycin (10,000 μg/mL) (Penn-Strep, 2%), which was sterilized by filtration through a disposable filter (Nalgene, VWR Cat. No. 28199-585). The medium was replaced twice weekly. Cells were passaged (1:4 split) by removing the medium and adding aqueous trypsin (0.25%, 8 mL/flask). The flasks were swirled for 30 seconds, the aqueous trypsin was removed, and the cells were incubated for 5 minutes at room temperature, then washed twice with fresh medium (7 mL each time). Poly-D-lysine solution (50 μg/mL in aqueous phosphate saline buffer, 0.25 mL) was added to each well of a sterile 96-well […] plate (Corning), which was then incubated at room temperature for 40 minutes. The poly-D-lysine solution was removed, each well was washed twice with aqueous phosphate saline buffer (0.25 mL), cells were added (0.2 mL/well), and the plate was incubated at 37° C. for two days in an oxygen-carbon dioxide (95:5) atmosphere to provide a monolayer of 1.4-1.9×10^4 cells per well.
To test for receptor binding the aqueous phosphate saline buffer was removed from each well, the cell monolayer was washed three times with assay buffer (aqueous 2-[4-(2-hydroxyethyl)-1-piperazinyl]ethanesulfonic acid [HEPES], 25 mM; potassium chloride, 5.8 mM; monopotassium phosphate, 2.2 mM; sodium chloride, 115 mM; magnesium sulfate, 0.6 mM; calcium chloride, 1.8 mM; bovine serum albumin, 1%; glucose, 5 mM; thiorphan, 1 μM; and bacitracin, 40 μg/mL; pH adjusted to 7.40 with dilute hydrochloric acid; 0.25 mL each time). To each well was then added assay buffer alone (0.1 mL) or a mixture (0.1 mL) with assay buffer as diluent containing ^125 I-Bolton Hunter Substance P (Amersham, Inc., Arlington Heights, Ill.; 0.1 nanomole) and test compound in amount to give the desired concentration thereof or, to determine nonspecific binding, unlabelled Substance P (0.1 micromole) and the plate was incubated at 25° C. for 90 minutes. Excess assay buffer or Substance P mixture was then removed and each well was washed four times with assay buffer (0.25 mL each time). The cells were detached from each well by addition of aqueous octoxynol (Triton X-100, 0.2%, 140 μL) containing bovine serum albumin (1 mg/L). The radioactivity of part (100 μL) of the detachment mixture was measured in a gamma ray counter (Packard Cobra). Kd and IC50 values were determined and a Ki value was calculated for each test compound as described above.

| Compound | Ki [nM] |
| --- | --- |
| Cc1cccc2c1[C@@]1([C@]34C[C@H]5C(=O)N[C@@H](Cc6ccccc6)C(=O)N5[C@H]3Nc3cccc(C)c34)C[C@H]3C(=O)N[C@@H](Cc4ccccc4)C(=O)N3[C@H]1N2 | 5650 |
| O=C1N[C@@H](Cc2ccccc2)C(=O)N2[C@H]3Nc4ccccc4[C@@]3([C@]34C[C@H]5C(=O)N[C@@H](Cc6ccccc6F)C(=O)N5[C@H]3Nc3ccccc34)C[C@@H]12 | 700 |
| Cc1ccc2c(c1)[C@@]1([C@]34C[C@H]5C(=O)N[C@@H](Cc6ccccc6)C(=O)N5[C@H]3Nc3ccc(C)cc34)C[C@H]3C(=O)N[C@@H](Cc4ccccc4)C(=O)N3[C@H]1N2 | 2850 |
| O=C1N[C@@H](Cc2cccs2)C(=O)N2[C@H]3Nc4ccccc4[C@@]3([C@]34C[C@H]5C(=O)N[C@@H](Cc6cccs6)C(=O)N5[C@H]3Nc3ccccc34)C[C@@H]12 | 3000 |
| O=C1N[C@@H](Cc2ccccc2)C(=O)N2[C@H]3Nc4ccccc4[C@@]3([C@]34C[C@H]5C(=O)N[C@@H](Cc6cccs6)C(=O)N5[C@H]3Nc3ccccc34)C[C@@H]12 | 930 |
| Cc1ccccc1C[C@@H]1NC(=O)[C@@H]2C[C@]3([C@]45C[C@H]6C(=O)N[C@@H](Cc7ccccc7C)C(=O)N6[C@H]4Nc4ccccc45)c4ccccc4N[C@@H]3N2C1=O | 160 |
| O=C1N[C@@H](Cc2ccccc2)C(=O)N2[C@H]3Nc4ccccc4[C@@]3([C@]34C[C@H]5C(=O)N[C@@H](CC6CCCCC6)C(=O)N5[C@H]3Nc3ccccc34)C[C@@H]12 | 380 |
| O=C1N[C@@H](Cc2ccccc2)C(=O)N2[C@H]3Nc4ccccc4[C@@]3([C@]34C[C@H]5C(=O)N[C@@H](Cc6ccccc6)C(=O)N5[C@H]3Nc3ccc(Br)cc34)C[C@@H]12 | 1500 |
| Cc1cccc2c1[C@@]1([C@]34C[C@H]5C(=O)N[C@@H](Cc6ccccc6)C(=O)N5[C@H]3Nc3ccccc34)C[C@H]3C(=O)N[C@@H](Cc4ccccc4)C(=O)N3[C@H]1N2 | 440 |
| Cc1ccccc1C[C@@H]1NC(=O)[C@@H]2C[C@]3([C@]45C[C@H]6C(=O)N[C@@H](Cc7ccccc7)C(=O)N6[C@H]4Nc4ccccc45)c4ccccc4N[C@@H]3N2C1=O | 190 |
| Cc1ccc2c(c1)[C@@]1([C@]34C[C@H]5C(=O)N[C@@H](Cc6ccccc6)C(=O)N5[C@H]3Nc3ccccc34)C[C@H]3C(=O)N[C@@H](Cc4ccccc4)C(=O)N3[C@H]1N2 | 590 |
| Cc1ccc(C[C@@H]2NC(=O)[C@@H]3C[C@]4([C@]56C[C@H]7C(=O)N[C@@H](Cc8ccc(C)cc8)C(=O)N7[C@H]5Nc5ccccc56)c5ccccc5N[C@@H]4N3C2=O)cc1 | 450 |
| O=C1N[C@@H](Cc2ccccc2)C(=O)N2[C@H]3Nc4ccccc4[C@@]3([C@]34C[C@H]5C(=O)N[C@@H](Cc6ccccc6Cl)C(=O)N5[C@H]3Nc3ccccc34)C[C@@H]12 | 260 |
| Cc1ccc(C[C@@H]2NC(=O)[C@@H]3C[C@]4([C@]56C[C@H]7C(=O)N[C@@H](Cc8ccccc8)C(=O)N7[C@H]5Nc5ccccc56)c5ccccc5N[C@@H]4N3C2=O)cc1 | 350 |
| O=C1N[C@@H](Cc2ccccc2Cl)C(=O)N2[C@H]3Nc4ccccc4[C@@]3([C@]34C[C@H]5C(=O)N[C@@H](Cc6ccccc6Cl)C(=O)N5[C@H]3Nc3ccccc34)C[C@@H]12 | 220 |
| O=C1N[C@@H](CC2CCCCC2)C(=O)N2[C@H]3Nc4ccccc4[C@@]3([C@]34C[C@H]5C(=O)N[C@@H](CC6CCCCC6)C(=O)N5[C@H]3Nc3ccccc34)C[C@@H]12 | 800 |
